Source: ChEMBL document CHEMBL4507272, “Data for DCP probe BAY-678” (2021)

Chains of the proteins cited; added tags and fusions are not shown. Lines headed by an entry give the natural chain unless they say otherwise; changes in a name come on top.
UniProt O75676: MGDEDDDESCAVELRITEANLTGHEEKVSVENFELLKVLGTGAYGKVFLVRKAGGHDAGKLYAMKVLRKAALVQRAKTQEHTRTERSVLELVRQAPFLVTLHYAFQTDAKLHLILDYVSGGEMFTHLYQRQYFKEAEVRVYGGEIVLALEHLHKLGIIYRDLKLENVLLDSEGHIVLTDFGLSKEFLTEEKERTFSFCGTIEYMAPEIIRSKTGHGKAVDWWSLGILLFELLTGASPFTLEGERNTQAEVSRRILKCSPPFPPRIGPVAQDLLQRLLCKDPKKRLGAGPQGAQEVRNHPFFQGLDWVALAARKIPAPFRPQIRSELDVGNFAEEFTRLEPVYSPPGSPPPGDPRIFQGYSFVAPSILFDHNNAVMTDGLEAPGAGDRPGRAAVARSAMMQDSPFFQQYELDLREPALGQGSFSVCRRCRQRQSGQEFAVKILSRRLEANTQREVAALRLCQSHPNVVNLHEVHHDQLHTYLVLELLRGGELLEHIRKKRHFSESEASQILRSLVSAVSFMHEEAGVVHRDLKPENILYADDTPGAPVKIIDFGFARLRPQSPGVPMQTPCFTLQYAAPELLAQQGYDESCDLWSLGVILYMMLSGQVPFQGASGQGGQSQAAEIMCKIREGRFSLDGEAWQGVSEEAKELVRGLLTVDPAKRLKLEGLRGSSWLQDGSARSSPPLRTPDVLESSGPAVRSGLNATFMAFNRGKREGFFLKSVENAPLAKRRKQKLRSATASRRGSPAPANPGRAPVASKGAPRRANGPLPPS

How the values were obtained:
[1] = molecular target: T1, Neutrophil elastase (Homo sapiens, UniProt P08246)
T1 sequence (P08246 whole entry): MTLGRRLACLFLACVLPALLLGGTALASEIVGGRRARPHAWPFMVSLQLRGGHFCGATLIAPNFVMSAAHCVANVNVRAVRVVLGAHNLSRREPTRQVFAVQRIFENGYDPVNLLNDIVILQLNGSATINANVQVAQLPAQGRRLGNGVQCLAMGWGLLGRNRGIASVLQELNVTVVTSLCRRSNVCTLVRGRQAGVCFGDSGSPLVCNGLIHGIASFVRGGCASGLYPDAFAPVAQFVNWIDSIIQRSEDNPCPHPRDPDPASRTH

[2] = molecular target: Ribosomal protein S6 kinase alpha-4 (Homo sapiens) (UniProt O75676); details: Compound concentration 1000.0 nM

| SMILES | IC50 [1] | residual activity [2] [%] |
| --- | --- | --- |
| CC(=O)C1=C(C)N(c2cccc(C(F)(F)F)c2)C(=O)N[C@H]1c1ccc(C#N)nc1 [BAY-677] | > 2000 nM (not active) |  |
| CC(=O)C1=C(C)N(c2cccc(C(F)(F)F)c2)C(=O)N[C@@H]1c1ccc(C#N)nc1 [BAY-678] |  | 33.5 |
